# In ChEMBL document CHEMBL5223066, “The medicinal chemistry of mitochondrial dysfunction: a critical overview of efforts to modulate mitochondrial health” (RSC Med Chem, 2021):
# Sequences of proteins named here, by UniProt entry; tags and fusion partners are left off. Residues count along the entry.
# UniProt P04839, 2-570 limits assumed: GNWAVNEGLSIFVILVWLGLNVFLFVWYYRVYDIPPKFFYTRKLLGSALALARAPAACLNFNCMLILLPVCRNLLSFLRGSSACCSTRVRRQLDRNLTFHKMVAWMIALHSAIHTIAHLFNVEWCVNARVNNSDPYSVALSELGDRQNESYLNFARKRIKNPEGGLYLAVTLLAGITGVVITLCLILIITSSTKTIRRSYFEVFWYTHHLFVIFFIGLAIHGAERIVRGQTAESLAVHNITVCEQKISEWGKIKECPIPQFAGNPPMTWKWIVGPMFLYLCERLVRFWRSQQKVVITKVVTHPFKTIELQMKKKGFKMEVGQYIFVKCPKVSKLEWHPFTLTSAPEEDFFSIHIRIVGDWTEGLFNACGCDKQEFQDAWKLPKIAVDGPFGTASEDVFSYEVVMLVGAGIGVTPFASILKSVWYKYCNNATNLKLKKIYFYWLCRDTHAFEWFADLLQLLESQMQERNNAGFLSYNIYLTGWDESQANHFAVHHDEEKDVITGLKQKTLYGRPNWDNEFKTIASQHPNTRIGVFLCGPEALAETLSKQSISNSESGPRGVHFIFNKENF
# Key:
# [1] = Ratio of drug level in brain to blood in rat at 1 mg/kg, iv
# [2] = target: NADPH oxidase 2 (Homo sapiens, UniProt P04839); assay: Inhibition of NOX2 (unknown origin)
compound,measurement,setting,value
CC(C)n1cc(-c2ccc3c(c2)N(C)CC3)c2c(NS(=O)(=O)c3cnn(C)c3)ccnc21,Ratio,[1],0.82
same,IC50,[2],0.5 µM
